# The entries are a selection whose mix differs from that of the whole data set. Calls of active or inactive are those of the source.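 Rule for the calls: active = inhibition above about 50% at 20 µM (limit read from the data); inactive = the rest.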
# Amino acid sequences for entries named in this document (tags omitted). Residues count along the entry.
# UniProt Q9GZU7, 76-261 limits assumed: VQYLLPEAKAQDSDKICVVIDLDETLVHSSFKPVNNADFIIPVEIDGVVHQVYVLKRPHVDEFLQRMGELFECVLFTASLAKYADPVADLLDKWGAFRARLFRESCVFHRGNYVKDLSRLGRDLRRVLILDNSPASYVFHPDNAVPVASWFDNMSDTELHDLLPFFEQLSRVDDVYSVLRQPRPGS
# Target: Carboxy-terminal domain RNA polymerase II polypeptide A small phosphatase 1 (Homo sapiens) (UniProt Q9GZU7)
# Test: inhibition of human SCP1 dephosphorylation activity – biochemical, colorimetric, uHTS, primary screen (AID 493091);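 note: plate controls were DMSO wells with enzyme for no effect and wells lacking enzyme for full effect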
# Conditions: Recombinant Scp1, phosphopeptide, malachite green phosphate absorbance; at 20 µM; stronger effect = higher value
# Method in brief: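 Assay system: SCP-1 catalytic fragment, aa 76-261 | Buffer or medium: Tris acetate buffer pH 5.5 with MgCl2 and Tween-20 | Compound: One concentration, 20 µM, with 1.0% DMSO | Also added: Phospho 17-mer peptide substrate | Signal: Absorbance at 630 nm | Incubation: 45 min enzyme reaction at room temperature | Measure: % inhibition of SCP-1 phosphate liberation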
row,Structure (SMILES),inhibition
1,CCc1ccc(OP(C)(=O)O)cc1,inactive: 2.57%

# From PubChem BioAssay AID493091 (Sanford-Burnham Center for Chemical Genomics, 2011)
